Assay results from publication PMC9189845, “Structure–Activity Relationships of 8-Hydroxyquinoline-Derived Mannich Bases with Tertiary Amines Targeting Multidrug-Resistant Cancer” (Journal of Medicinal Chemistry, 2022).

Columns and labels:
MES-SA cells = assay: PrestoBlue viability assay, MES-SA cells
MES-SA/Dx5 cells = assay: PrestoBlue viability assay, MES-SA/Dx5 cells (MDR, P-gp positive)
A431 cells = assay: PrestoBlue viability assay, A431 cells; details: read-out: IC50 / µM A431; 72 h incubation
A431-B1 cells = assay: PrestoBlue viability assay, A431-B1 (A431-ABCB1) cells; details: read-out: IC50 / µM A431-B1; 72 h incubation

SMILES: Oc1c(CN(CCCl)CCCl)ccc2cccnc12
- pIC50 value MES-SA (MES-SA cells; MES-SA cells, without TQ): 4.69
- IC50 (MES-SA cells; read-out: IC50 / μM MES-SA, absence of TQ, 72 h incubation): 20.7 µM
- pIC50 value MES-SA/Dx5 (MES-SA/Dx5 cells; MES-SA/Dx5 cells, without TQ): 4.65
- IC50 (MES-SA/Dx5 cells; read-out: IC50 / μM MES-SA/Dx5, absence of TQ, 72 h incubation): 22.7 µM
- SR (MES-SA/Dx5 cells; selectivity ratio MES-SA vs MES-SA/Dx5, without TQ): 0.91
- IC50 (A431 cells): 107 µM
- IC50 (A431-B1 cells): > 200 µM

This is a selection: effects in other tests are not listed, and their absence says nothing.
